# Test results taken from US12281147.
# Tests used:
# [1] = target: recombinant human IL-21R His tag (Acro Biosystems) (human) (UniProt Q9HBE5); assay: BLI
# [2] = target: mouse IL-21R, His-tagged (BLI antigen) (mouse) (UniProt Q9JHX3); assay: BLI
# [3] = target: mouse IL-21R on T cells of mouse splenocytes (mouse) (UniProt Q9JHX3); assay: cell-based or functional assay
# mouse IL-21R (mouse) [4] = target: mouse IL-21R (mouse) (UniProt Q9JHX3); assay: AlphaSeq yeast mating assay, pH 6 media
# mouse IL-21R (mouse) [5] = target: mouse IL-21R (mouse) (UniProt Q9JHX3); assay: AlphaSeq yeast mating assay, pH 5 media
# mouse IL-21R (mouse) [6] = target: mouse IL-21R (mouse) (UniProt Q9JHX3); assay: AlphaSeq yeast mating assay, unbuffered media
# mouse IL-21R (mouse) [7] = target: mouse IL-21R (mouse) (UniProt Q9JHX3); assay: AlphaSeq yeast mating assay, pH 7 media
# mouse IL-21R (mouse) [8] = target: mouse IL-21R (mouse) (UniProt Q9JHX3); assay: AlphaSeq yeast agglutination, pH 7 media
# mouse IL-21R (mouse) [9] = target: mouse IL-21R (mouse) (UniProt Q9JHX3); assay: AlphaSeq yeast agglutination, unbuffered media
# mouse IL-21R (mouse) [10] = target: mouse IL-21R (mouse) (UniProt Q9JHX3); assay: AlphaSeq yeast agglutination, pH 5 media
# mouse IL-21R (mouse) [11] = target: mouse IL-21R (mouse) (UniProt Q9JHX3); assay: AlphaSeq yeast agglutination, pH 6 media
# [12] = target: wild-type mouse IL-21R (mouse) (UniProt Q9JHX3); assay: AlphaSeq yeast mating, pH 7 media
# [13] = target: wild-type mouse IL-21R (mouse) (UniProt Q9JHX3); assay: AlphaSeq yeast mating, pH 6 media
# [14] = target: wild-type mouse IL-21R (mouse) (UniProt Q9JHX3); assay: AlphaSeq yeast mating, pH 5 media
# [15] = target: wild-type mouse IL-21R (mouse) (UniProt Q9JHX3); assay: AlphaSeq yeast mating, unbuffered media
Substance,Kd [1],Kd [2],"Mouse T cell EC50 (pM), pSTAT3 phosflow [3]",also measured
IL-21_mouse_D26T Fc fusion protein (from UniProt Q9ES17 18-146),,0.685 nM,35 pM,
IL-21_mouse_F69M Fc fusion protein (from UniProt Q9ES17 18-146),9.19 nM,5.65 nM,6.7 pM,
IL-21_mouse_F88D Fc fusion protein (from UniProt Q9ES17 18-146),5.94 nM,3.26 nM,5.7 pM,
IL-21_mouse_I30R Fc fusion protein (from UniProt Q9ES17 18-146),,13.5 nM,10 pM,
IL-21_mouse_I38A Fc fusion protein (from UniProt Q9ES17 18-146),4.61 nM,6.61 nM,140 pM,
IL-21_mouse_I89D Fc fusion protein (from UniProt Q9ES17 18-146),3.19 nM,6.07 nM,10700 pM,
IL-21_mouse_L35K Fc fusion protein (from UniProt Q9ES17 18-146),,,11400 pM,
IL-21_mouse_L92E Fc fusion protein (from UniProt Q9ES17 18-146),3.54 nM,10.4 nM,14700 pM,
IL-21_mouse_L100S Fc fusion protein (from UniProt Q9ES17 18-146),199 nM,8.71 nM,10500 pM,
IL-21_mouse_P101L Fc fusion protein (from UniProt Q9ES17 18-146),,,2500 pM,
IL-21_mouse_R27D Fc fusion protein (from UniProt Q9ES17 18-146),151 nM,90.8 nM,345 pM,
IL-21_mouse_R99L Fc fusion protein (from UniProt Q9ES17 18-146),10.5 nM,6.59 nM,20 pM,
IL-21_mouse_Y45Q Fc fusion protein (from UniProt Q9ES17 18-146),8.37 nM,7.05 nM,82 pM,
IL-21m_L145A (from UniProt Q9ES17 22-144) (ligand),,,,Kd (mouse IL-21R (mouse) [4]): 9 nM; Kd (mouse IL-21R (mouse) [5]): 57 nM; Kd (mouse IL-21R (mouse) [6]): 6300 nM; Kd (mouse IL-21R (mouse) [7]): 4 nM
IL-21m_L145D (from UniProt Q9ES17 22-144) (ligand),,,,Kd (mouse IL-21R (mouse) [8]): 9 nM; Kd (mouse IL-21R (mouse) [9]): 13000 nM; Kd (mouse IL-21R (mouse) [10]): 210 nM; Kd (mouse IL-21R (mouse) [11]): 18 nM
IL-21m_L145F (from UniProt Q9ES17 22-144) (ligand),,,,Kd (mouse IL-21R (mouse) [4]): 10 nM; Kd (mouse IL-21R (mouse) [5]): 110 nM; Kd (mouse IL-21R (mouse) [6]): 11000 nM; Kd (mouse IL-21R (mouse) [7]): 6 nM
IL-21m_L145G (from UniProt Q9ES17 22-144) (ligand),,,,Kd (mouse IL-21R (mouse) [8]): 6 nM; Kd (mouse IL-21R (mouse) [9]): 13000 nM; Kd (mouse IL-21R (mouse) [10]): 96 nM; Kd (mouse IL-21R (mouse) [11]): 12 nM
IL-21m_L145H (from UniProt Q9ES17 22-144) (ligand),,,,Kd (mouse IL-21R (mouse) [4]): 12 nM; Kd (mouse IL-21R (mouse) [5]): 130 nM; Kd (mouse IL-21R (mouse) [6]): 5600 nM; Kd (mouse IL-21R (mouse) [7]): 5 nM
IL-21m_L145K (from UniProt Q9ES17 22-144) (ligand),,,,Kd (mouse IL-21R (mouse) [4]): 9 nM; Kd (mouse IL-21R (mouse) [5]): 57 nM; Kd (mouse IL-21R (mouse) [6]): 4200 nM; Kd (mouse IL-21R (mouse) [7]): 4 nM
IL-21m_L145P (from UniProt Q9ES17 22-144) (ligand),,,,Kd (mouse IL-21R (mouse) [4]): 24 nM; Kd (mouse IL-21R (mouse) [5]): 1200 nM; Kd (mouse IL-21R (mouse) [6]): 73000 nM; Kd (mouse IL-21R (mouse) [7]): 13 nM
IL-21m_L145Q (from UniProt Q9ES17 22-144) (ligand),,,,Kd [12]: 4 nM; Kd [13]: 9 nM; Kd [14]: 60 nM; Kd [15]: 2500 nM
IL-21m_L145R (from UniProt Q9ES17 22-144) (ligand),,,,Kd (mouse IL-21R (mouse) [8]): 7 nM; Kd (mouse IL-21R (mouse) [9]): 11000 nM; Kd (mouse IL-21R (mouse) [10]): 140 nM; Kd (mouse IL-21R (mouse) [11]): 13 nM
IL-21m_L145S (from UniProt Q9ES17 22-144) (ligand),,,,Kd (mouse IL-21R (mouse) [4]): 15 nM; Kd (mouse IL-21R (mouse) [5]): 130 nM; Kd (mouse IL-21R (mouse) [6]): 7400 nM; Kd (mouse IL-21R (mouse) [7]): 7 nM
IL-21m_L145W (from UniProt Q9ES17 22-144) (ligand),,,,Kd (mouse IL-21R (mouse) [8]): 6 nM; Kd (mouse IL-21R (mouse) [9]): 12000 nM; Kd (mouse IL-21R (mouse) [10]): 130 nM; Kd (mouse IL-21R (mouse) [11]): 12 nM
IL-21m_L145Y (from UniProt Q9ES17 22-144) (ligand),,,,Kd (mouse IL-21R (mouse) [4]): 11 nM; Kd (mouse IL-21R (mouse) [5]): 66 nM; Kd (mouse IL-21R (mouse) [6]): 4700 nM; Kd (mouse IL-21R (mouse) [7]): 5 nM
IL-21m_P22R (from UniProt Q9ES17 23-145) (ligand),,,,Kd (mouse IL-21R (mouse) [4]): 10 nM; Kd (mouse IL-21R (mouse) [5]): 79 nM; Kd (mouse IL-21R (mouse) [6]): 19000 nM; Kd (mouse IL-21R (mouse) [7]): 6 nM

# The next lines start with results.
Kd [1],Kd [2],"Mouse T cell EC50 (pM), pSTAT3 phosflow [3]",Substance,also measured
7.32 nM,4.77 nM,,IL-21_mouse_A56D Fc fusion protein (from UniProt Q9ES17 18-146),
,4.34 nM,13300 pM,IL-21_mouse_A68E Fc fusion protein (from UniProt Q9ES17 18-146),
,40.2 nM,26 pM,IL-21_mouse_D26P Fc fusion protein (from UniProt Q9ES17 18-146),
2.5 nM,,1460 pM,IL-21_mouse_D37P Fc fusion protein (from UniProt Q9ES17 18-146),
,1.33 nM,26300 pM,IL-21_mouse_F69H Fc fusion protein (from UniProt Q9ES17 18-146),
8.86 nM,6.15 nM,5.8 pM,IL-21_mouse_I30V Fc fusion protein (from UniProt Q9ES17 18-146),
4.58 nM,,13900 pM,IL-21_mouse_I38D Fc fusion protein (from UniProt Q9ES17 18-146),
4.52 nM,6.11 nM,76 pM,IL-21_mouse_L96M Fc fusion protein (from UniProt Q9ES17 18-146),
,12 nM,,IL-21_mouse_L130W Fc fusion protein (from UniProt Q9ES17 18-146),
,,5250 pM,IL-21_mouse_N85I Fc fusion protein (from UniProt Q9ES17 18-146),
105 nM,21.6 nM,,IL-21_mouse_P57E Fc fusion protein (from UniProt Q9ES17 18-146),
9.35 nM,6.61 nM,29 pM,IL-21_mouse_Q95S Fc fusion protein (from UniProt Q9ES17 18-146),
22.2 nM,10.9 nM,18 pM,IL-21_mouse_R27S Fc fusion protein (from UniProt Q9ES17 18-146),
,,140 pM,IL-21_mouse_R97V Fc fusion protein (from UniProt Q9ES17 18-146),
,42.7 nM,60 pM,IL-21_mouse_R98A Fc fusion protein (from UniProt Q9ES17 18-146),
40.1 nM,14 nM,4420 pM,IL-21_mouse_V60K Fc fusion protein (from UniProt Q9ES17 18-146),
,,6.7 pM,IL-21_mouse_WT Fc fusion protein (from UniProt Q9ES17 18-146),
4.31 nM,,5100 pM,IL-21_mouse_Y45D Fc fusion protein (from UniProt Q9ES17 18-146),
